{"source": "patent US20080293712A1", "about": "“Benzo[C][2,7]Naphtyridine Derivatives, Methods of Making Thereof and Methods of Use Thereof” (WYETH, priority 2007, published 2008)", "target": "T1, PDK-1 (Homo sapiens, UniProt O15530)", "T1 sequence (O15530 1-556)": "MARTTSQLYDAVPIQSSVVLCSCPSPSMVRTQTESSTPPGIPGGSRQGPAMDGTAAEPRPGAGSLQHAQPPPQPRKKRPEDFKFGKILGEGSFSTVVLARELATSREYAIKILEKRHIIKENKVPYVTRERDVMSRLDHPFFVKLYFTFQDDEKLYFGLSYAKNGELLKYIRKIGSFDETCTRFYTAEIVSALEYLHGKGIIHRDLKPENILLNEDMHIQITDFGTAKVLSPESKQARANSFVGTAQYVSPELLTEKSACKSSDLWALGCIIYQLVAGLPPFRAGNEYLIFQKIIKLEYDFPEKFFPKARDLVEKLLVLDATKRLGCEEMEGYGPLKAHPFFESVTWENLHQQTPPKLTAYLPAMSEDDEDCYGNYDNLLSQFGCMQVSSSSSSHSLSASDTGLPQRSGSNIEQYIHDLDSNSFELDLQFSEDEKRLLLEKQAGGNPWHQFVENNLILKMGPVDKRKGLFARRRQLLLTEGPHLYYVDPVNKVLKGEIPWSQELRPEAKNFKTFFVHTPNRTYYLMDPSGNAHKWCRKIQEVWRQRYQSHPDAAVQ", "assay": "PDK-1 kinase inhibition ELISA assay (phosphorylation of His6-tagged SGK1 S422D by PDK-1)", "type": "biochemical", "conditions": "PDK-1 ELISA, Table 11", "data": [{"smiles": "Nc1nc(-c2cncc(OC[C@@H](N)Cc3ccccc3)c2)cc2c1cnc1cc(C#CCCn3ccnc3)ccc12", "note": "[Ia-5, 2-(5-{[(2S)-2-Amino-3-phenylpropyl]oxy}pyridin-3-yl)-8-[4-(1H-imidazol-1-yl)but-1-yn-1-yl]benzo[c]-2,7-naphthyridin-4-amine]", "values": [{"measurement": "IC50", "value": 36, "unit": "nM"}]}, {"smiles": "COc1cc2ncc3c(N)nc(-c4ccc5[nH]cnc5c4)cc3c2cc1OC", "note": "[Ib-244, 2-(1H-benzimidazol-5-yl)-8,9-dimethoxybenzo[c][2,7]naphthyridin-4-amine]", "values": [{"measurement": "IC50", "value": 36, "unit": "nM"}]}, {"smiles": "COc1cc2ncc3c(N)nc(-c4cncc(OC[C@@H](N)COc5cccc(C#N)c5)c4)cc3c2cc1OC", "note": "[Ib-155, 3-{[(2S)-2-amino-3-{[5-(4-amino-8,9-dimethoxybenzo[c][2,7]naphthyridin-2-yl)pyridin-3-yl]oxy}propyl]oxy}benzonitrile]", "values": [{"measurement": "IC50", "value": 36, "unit": "nM"}]}, {"smiles": "COc1cc2ncc3c(N)nc(-c4cncc(OC[C@@H](N)Cn5cc(-c6nccs6)cn5)c4)cc3c2cc1OC", "note": "[Ib-92, 2-[5-({(2S)-2-amino-3-[4-(1,3-thiazol-2-yl)-1H-pyrazol-1-yl]propyl}oxy)pyridin-3-yl]-8,9-dimethoxybenzo[c][2,7]naphthyridin-4-amine]", "values": [{"measurement": "IC50", "value": 36, "unit": "nM"}]}]}
